Values of other authors, collected in patent US20100105761A1, “TREATMENT OF PAIN THROUGH EXPRESSION OF OPIOID RECEPTORS” (priority 2006, published 2010).

Sequences of proteins named here, by UniProt entry; tags and fusion partners are left off.
UniProt P41143, whole entry: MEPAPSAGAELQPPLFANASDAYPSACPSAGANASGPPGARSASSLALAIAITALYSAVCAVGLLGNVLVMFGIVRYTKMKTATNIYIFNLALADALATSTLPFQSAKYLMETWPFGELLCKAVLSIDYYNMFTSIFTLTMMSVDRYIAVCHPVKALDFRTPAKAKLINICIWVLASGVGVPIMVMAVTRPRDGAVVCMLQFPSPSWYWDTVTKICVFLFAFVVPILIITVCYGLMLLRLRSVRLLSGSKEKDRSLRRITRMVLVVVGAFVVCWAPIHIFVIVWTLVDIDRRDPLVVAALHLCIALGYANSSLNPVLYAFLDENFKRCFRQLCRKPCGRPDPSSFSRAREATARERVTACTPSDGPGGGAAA
UniProt P35372, whole entry: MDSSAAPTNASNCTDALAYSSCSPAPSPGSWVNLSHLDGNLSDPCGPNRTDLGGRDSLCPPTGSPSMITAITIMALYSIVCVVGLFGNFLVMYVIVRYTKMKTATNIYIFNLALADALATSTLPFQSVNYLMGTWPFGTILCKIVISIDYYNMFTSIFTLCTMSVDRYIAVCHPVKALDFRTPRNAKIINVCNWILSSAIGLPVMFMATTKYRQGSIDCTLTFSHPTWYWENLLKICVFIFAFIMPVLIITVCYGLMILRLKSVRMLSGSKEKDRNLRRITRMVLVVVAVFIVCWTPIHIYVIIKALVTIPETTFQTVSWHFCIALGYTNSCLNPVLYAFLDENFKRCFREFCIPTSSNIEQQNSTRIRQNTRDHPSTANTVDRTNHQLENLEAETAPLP

Assays:
[1] = target: human recombinant DOR-1 receptor (Homo sapiens, UniProt P41143)
μ-receptor = μ-receptor (Homo sapiens, UniProt P35372)

Row | Substance | binding to human recombinant DOR-1 receptor [1] | affinity / selectivity for μ-receptors (in words) (μ-receptor)
1 | DPDPE | bind | 
2 | Endomorphin-1 |  | highly selective
3 | endomorphin-2 |  | highly selective
